Data on 1 compound can be found in patent publication US4910214A, “Optical isomer of an imidazole derivative medetomidine as an alpha-2-receptor agonist” (Farmos Yhtyma Oy, priority 1987, dated 1990).

One assay relates to α2 -receptors. Type of assay: binding, rat. To be noted: ratio of 3H-prazosin IC50 to 3H-clonidine IC50. The text has this: The selectivity of the d-enantiomer as an α2 -agonist was studied in receptor binding experiments using rat brain membranes. […] 108, 163-9, 1985.
In another assay the target is α1 -receptors. In words: 3H-prazosin displacement, receptor binding in rat brain membranes. The text has this:
The selectivity of the d-enantiomer as an α2 -agonist was studied in receptor binding experiments using rat brain membranes. The ability of the d-isomer and the reference compounds to compete with ^3 H-clonidine (for α2 -receptors) and ^3 H-prazosin (for α1 -receptors) was studied essentially as described by Virtanen and Nyman in Eur. J. Pharmac. 108, 163-9, 1985. Results of the test are presented in Table 2, where the ability of the studied agents to compete with ^3 H-clonidine and ^3 H-prazosin binding is expressed as the IC50 -value (molar concentration of the competing ligand needed to displace 50 percent of the radioactive ligand).

A word on the IC50: it is the concentration needed to halve the response being measured. Low values mean greater potency, high ones weaker potency. Consider `Cc1cccc(Cc2c[nH]cn2)c1C` [detomidine], for which the “α2 /α1 -selectivity” value in the assay on α2 -receptors is 65. In addition, the IC50 on α1 -receptors is 242 nM.
